For the experiment, the target named is T1, Toll-like receptor 8 (Homo sapiens, UniProt Q9NR97).
T1 sequence (Q9NR97 whole entry): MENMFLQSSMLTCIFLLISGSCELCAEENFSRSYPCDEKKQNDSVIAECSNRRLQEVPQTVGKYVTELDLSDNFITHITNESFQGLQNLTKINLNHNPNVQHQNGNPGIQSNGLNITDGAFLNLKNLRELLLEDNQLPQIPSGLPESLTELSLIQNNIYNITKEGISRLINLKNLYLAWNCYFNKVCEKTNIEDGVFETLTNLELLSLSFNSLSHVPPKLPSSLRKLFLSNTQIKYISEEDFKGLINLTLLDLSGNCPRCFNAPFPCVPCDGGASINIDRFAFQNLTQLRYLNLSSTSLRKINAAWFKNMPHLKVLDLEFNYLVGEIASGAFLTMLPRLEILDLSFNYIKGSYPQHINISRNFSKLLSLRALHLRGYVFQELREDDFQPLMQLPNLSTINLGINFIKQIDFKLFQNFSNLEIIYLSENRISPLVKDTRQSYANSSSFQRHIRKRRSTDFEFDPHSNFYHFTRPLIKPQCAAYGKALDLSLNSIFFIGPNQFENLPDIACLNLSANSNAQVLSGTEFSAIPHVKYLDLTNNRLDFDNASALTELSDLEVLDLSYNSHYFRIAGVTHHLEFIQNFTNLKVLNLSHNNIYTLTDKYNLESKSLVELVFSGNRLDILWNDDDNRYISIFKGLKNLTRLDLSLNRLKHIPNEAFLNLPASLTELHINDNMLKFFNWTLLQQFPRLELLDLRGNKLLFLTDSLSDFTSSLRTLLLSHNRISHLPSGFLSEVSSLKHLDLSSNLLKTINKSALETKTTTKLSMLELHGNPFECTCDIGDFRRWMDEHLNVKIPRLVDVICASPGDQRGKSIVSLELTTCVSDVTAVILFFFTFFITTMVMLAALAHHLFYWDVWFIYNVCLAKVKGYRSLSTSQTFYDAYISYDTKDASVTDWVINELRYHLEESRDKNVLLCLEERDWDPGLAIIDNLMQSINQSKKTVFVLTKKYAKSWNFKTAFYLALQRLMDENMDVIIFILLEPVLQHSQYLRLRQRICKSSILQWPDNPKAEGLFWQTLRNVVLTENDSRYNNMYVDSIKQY
In words: Agonist activity at human TLR8 expressed in HEK293 cells harboring SEAP reporter gene by quanti-blue reagent based analysis. It is filed as cell-based. In general terms: In a reporter assay the amount or activity of a reporter protein is the signal.

Each structure is given as a SMILES string.

One may read the EC50 as the concentration that produces a half-maximal response. The low end stands for greater potency, the high end for weaker potency. In the case of `CCCCc1nc2c(N)nc3ccccc3c2n1Cc1cccc(CN)c1`, the EC50 came out at 1700 nM.

The record behind these values is ChEMBL document CHEMBL6071192, “Modulation of the Adjuvant Potential of Imidazoquinoline-Based TLR7/8 Agonists via Alum Adsorption” (ACS Med Chem Lett, 2024).
